Patent publication US8772241B2, “Peptide and use thereof” (Ensoltek Co., Ltd., priority 2010, dated 2014)

Test system: damaged cartilage tissue explants (articular chondrocyte explants)
Assay: Cartilage regeneration in damaged cartilage tissue explants
Assay type: cell-based, cows
Details: 6-week culture; 25 μM peptide and/or 2 ng/ml TGFβ1
Procedure: Using a syringe (21G) whose tip was truncated and ground, damaged regions were prepared by making vertical holes to the surface uniformly at the center of the explant.
The perforated tissue explants were divided into 4 groups including a control group. […] In addition, the 1-week-incubated tissue explant and the 6-week-incubated tissue explant were fixed, respectively, in a 3.7% formaldehyde/phosphate buffered saline(3.7% formaldehyde/PBS). Then, according to the experimental method of standard histochemistry, paraffin section slides were prepared, followed by hematoxylin & eosin (H&E) staining and microscopic examination of cell shape and distribution in terms of morphology. Collagen was subjected to Masson's trichrome staining, and the shape and distribution of cells in the tissue were examined under a microscope. For comparison, the control group was treated in the same manner as in the group treated with the peptide of Example 1, except that the peptide of Example 1 was not treated.

With “TGFβ1: transforming growth factor beta 1 (TGFβ1, Promokine)” the “damaged region of explant, hematoxylin & eosin staining (FIG. 4)” value was “substantially no change”.
